Measured values: PMC12250624, “Anti-Amyloid Aggregation Effects of Gobaishi (Galla chinensis) and Its Active Constituents” (Molecules, 2025)

Chains of the proteins cited; added tags and fusions are not shown. Residues count along the entry.
UniProt P05067, 672-713: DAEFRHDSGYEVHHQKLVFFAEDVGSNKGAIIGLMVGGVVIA

Biological target: Aβ42 (amyloid-beta) (Homo sapiens, UniProt P05067)
Parameters: gene APP

Q: `O=C(OC[C@H]1O[C@@H](OC(=O)c2cc(O)c(O)c(O)c2)[C@H](OC(=O)c2cc(O)c(O)c(O)c2)[C@@H](OC(=O)c2cc(O)c(O)c(O)c2)[C@@H]1OC(=O)c1cc(O)c(O)c(O)c1)c1cc(O)c(O)c(O)c1` [compound 1, pentagalloyl glucose] was tested. Which “ThT fibril aggregation assay and turbidity assay, 30 μM Aβ42, 24 h at 37 °C” value did it give?
A: Its value is “This result provides physical evidence that PGG directly inhibits the growth of large, light-scattering Aβ aggregates”.
